How the values were obtained:
human orexin-1 receptor = human orexin-1 receptor (Homo sapiens (Human), UniProt O43613); experiment: In vitro assay: intracellular calcium measurements (FLIPR), antagonistic activity; format: cell-based; conditions: CHO cells, 3 nM orexin-A, compound incubation 120 min; marked values are geometric means of n = 2-6; read-out: IC50 OX1
Method: (§1) In Vitro Assay: Intracellular Calcium Measurements:
(§2) Chinese hamster ovary (CHO) cells expressing the human orexin-1 receptor and the human orexin-2 receptor, respectively, are grown in culture medium (Ham F-12 with L-Glutamine) containing 300 µg/ml G418, 100 U/ml penicillin, 100 µg/ml streptomycin and 10% heat inactivated fetal calf serum (FCS). The cells are seeded at 20,000 cells/well into 384-well black clear bottom sterile plates (Greiner). The seeded plates are incubated overnight at 37° C. in 5% CO2.
(§3) Fluorescence is measured for each well at 1 second intervals, and the height of each fluorescence peak is compared to the height of the fluorescence peak induced by 3 nM orexin-A with vehicle in place of antagonist. […] Optimized conditions were achieved by adjustment of pipetting speed and cell splitting regime. The calculated IC50 values may fluctuate depending on the daily cellular assay performance. Fluctuations of this kind are known to those skilled in the art.

Sequences of proteins named here, by UniProt entry; tags and fusion partners are left off.
UniProt O43613, whole entry: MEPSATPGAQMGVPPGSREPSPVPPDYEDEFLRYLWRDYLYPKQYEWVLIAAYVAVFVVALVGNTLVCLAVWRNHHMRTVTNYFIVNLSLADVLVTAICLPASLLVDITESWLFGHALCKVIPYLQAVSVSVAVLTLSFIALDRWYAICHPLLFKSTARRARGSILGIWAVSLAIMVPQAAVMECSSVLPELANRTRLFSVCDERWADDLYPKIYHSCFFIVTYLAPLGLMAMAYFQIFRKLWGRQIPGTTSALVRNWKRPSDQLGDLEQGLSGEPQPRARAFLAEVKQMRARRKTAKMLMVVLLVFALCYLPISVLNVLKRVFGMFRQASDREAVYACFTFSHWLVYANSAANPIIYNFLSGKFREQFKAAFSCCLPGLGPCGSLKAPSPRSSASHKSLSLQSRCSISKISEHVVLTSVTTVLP
UniProt O43614, whole entry: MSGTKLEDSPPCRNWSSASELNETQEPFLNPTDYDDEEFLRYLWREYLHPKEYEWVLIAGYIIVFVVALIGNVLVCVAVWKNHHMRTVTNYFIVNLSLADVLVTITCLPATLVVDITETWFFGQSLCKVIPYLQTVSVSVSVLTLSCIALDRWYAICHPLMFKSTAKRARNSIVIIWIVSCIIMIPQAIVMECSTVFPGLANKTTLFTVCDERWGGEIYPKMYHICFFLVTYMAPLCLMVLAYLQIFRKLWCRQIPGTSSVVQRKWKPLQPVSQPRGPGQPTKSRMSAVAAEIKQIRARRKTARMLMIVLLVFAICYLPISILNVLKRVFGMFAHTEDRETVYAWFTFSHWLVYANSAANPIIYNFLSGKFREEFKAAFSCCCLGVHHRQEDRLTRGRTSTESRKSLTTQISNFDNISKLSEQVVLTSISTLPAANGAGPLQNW

human orexin-2 receptor = human orexin-2 receptor (Homo sapiens (Human), UniProt O43614); experiment: as above; format: cell-based; conditions: CHO cells, 3 nM orexin-A, compound incubation 120 min; marked values are geometric means of n = 2-6; read-out: IC50 OX2
Method: as §1, §2, §3

IC50 (human orexin-1 receptor) | IC50 (human orexin-2 receptor) | Structure (SMILES)
1.37 µM | – | COc1ccc(F)c(OC)c1[C@@H]1C[C@@H](O)C(=O)N1Cc1ccc(OC(F)(F)F)cc1 (racemic) [Example 311, rac-(3R*,5S*)-5-(3-fluoro-2,6-dimethoxyphenyl)-3-hydroxy-1-(4-(trifluoromethoxy)benzyl)pyrrolidin-2-one]
2.47 µM | – | CCOc1ccc(F)c(F)c1[C@@H]1C[C@@H](O)C(=O)N1Cc1ccc(OC(F)(F)F)cc1 (racemic) [Example 338, rac-(3R*,5S*)-5-(6-ethoxy-2,3-difluorophenyl)-3-hydroxy-1-(4-(trifluoromethoxy)benzyl)pyrrolidin-2-one]
1.43 µM | – | COc1c(F)ccc(F)c1[C@@H]1C[C@H](F)C(=O)N1Cc1ccc(OC(F)(F)F)cc1 (racemic) [Example 321, rac-(3S*,5S*)-5-(3,6-difluoro-2-methoxyphenyl)-3-fluoro-1-(4-(trifluoromethoxy)benzyl)pyrrolidin-2-one]

The remaining lines, values behind:

Structure (SMILES) | IC50 (human orexin-1 receptor) | IC50 (human orexin-2 receptor)
CCOc1cccc(Cl)c1[C@@H]1C[C@H](Cl)C(=O)N1Cc1ccc(OC(F)(F)F)cc1 (racemic) [Example 437, rac-(3S*,5S*)-3-chloro-5-(2-chloro-6-ethoxyphenyl)-1-(4-(trifluoromethoxy)benzyl)pyrrolidin-2-one] | 0.782 µM | 0.046 µM
COc1cccc(F)c1[C@@H]1C[C@@H](O)C(=O)N1Cc1ccc2oc3ccccc3c2c1 (racemic) [Example 412, rac-(3R*,5S*)-1-(dibenzo[b,d]furan-2-ylmethyl)-5-(2-fluoro-6-methoxyphenyl)-3-hydroxypyrrolidin-2-one] | 0.288 µM | 0.004 µM
COc1cccc(F)c1[C@@H]1C[C@H](Cl)C(=O)N1Cc1cccc(OC(F)(F)F)c1 (racemic) [Example 460, rac-(3S*,5S*)-3-chloro-5-(2-fluoro-6-methoxyphenyl)-1-(3-(trifluoromethoxy)benzyl)pyrrolidin-2-one] | 0.798 µM | 0.022 µM
CC(C)Oc1cccc(F)c1[C@@H]1C[C@@H](O)C(=O)N1Cc1ccc(OC(F)(F)F)cc1 (racemic) [Example 394, rac-(3R*,5S*)-5-(2-fluoro-6-isopropoxyphenyl)-3-hydroxy-1-(4-(trifluoromethoxy)benzyl)pyrrolidin-2-one] | 2.55 µM | –
